Holding throughout (assay type): cell-based
For test [1], the target named is T1, von Hippel-Lindau disease tumor suppressor/E3 ubiquitin-protein ligase Mdm2 (Homo sapiens) (UniProt Q00987+P40337). Description: PROTAC activity at VHL/MDM2 in human RS4-11 cells harbouring wildtype p53 assessed as fold change in MDM2 level at 0.1 uM incubated for 2 hrs by Western blot analysis. A general note: A western blot detects proteins with antibodies after separation by electrophoresis.

Amino acid sequences for entries named in this document (tags omitted).
UniProt Q00987, whole entry, looked up: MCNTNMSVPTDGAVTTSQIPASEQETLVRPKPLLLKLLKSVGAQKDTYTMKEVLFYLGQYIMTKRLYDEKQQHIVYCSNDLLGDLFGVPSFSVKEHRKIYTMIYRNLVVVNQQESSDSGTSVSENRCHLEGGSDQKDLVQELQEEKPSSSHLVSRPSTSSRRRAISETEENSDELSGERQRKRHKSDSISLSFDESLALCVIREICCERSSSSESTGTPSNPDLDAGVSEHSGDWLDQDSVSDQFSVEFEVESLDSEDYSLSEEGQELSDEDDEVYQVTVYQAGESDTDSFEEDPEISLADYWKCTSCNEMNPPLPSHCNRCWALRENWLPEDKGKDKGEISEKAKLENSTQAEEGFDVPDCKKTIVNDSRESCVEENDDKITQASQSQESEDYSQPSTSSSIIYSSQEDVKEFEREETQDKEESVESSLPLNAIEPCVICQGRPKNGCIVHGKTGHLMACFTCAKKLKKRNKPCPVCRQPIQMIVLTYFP
UniProt P40337, whole entry, looked up: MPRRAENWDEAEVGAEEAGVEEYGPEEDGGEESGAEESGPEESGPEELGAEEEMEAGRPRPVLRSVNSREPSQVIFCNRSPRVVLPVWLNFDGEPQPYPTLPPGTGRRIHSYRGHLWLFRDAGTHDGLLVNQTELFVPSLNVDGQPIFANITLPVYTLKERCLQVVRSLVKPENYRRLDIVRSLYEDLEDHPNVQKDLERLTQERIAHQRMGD

Test [2] deals with T1, von Hippel-Lindau disease tumor suppressor/E3 ubiquitin-protein ligase Mdm2 (Homo sapiens). Description: PROTAC activity at VHL/MDM2 in human RS4-11 cells harbouring wildtype p53 assessed as fold change in MDM2 level at 0.3 uM incubated for 2 hrs by Western blot analysis.
Test [3] has the same target. Briefly: PROTAC activity at VHL/MDM2 in human RS4-11 cells harbouring wildtype p53 assessed as fold change in MDM2 level at 1 uM incubated for 2 hrs by Western blot analysis.
Test [4] has the same target. Briefly: PROTAC activity at VHL/MDM2 in human RS4-11 cells harbouring wildtype p53 assessed as fold change in MDM2 level at 3 uM incubated for 2 hrs by Western blot analysis.
Test [5] shares this target. Description: PROTAC activity at VHL/MDM2 in human RS4-11 cells harbouring wildtype p53 assessed as fold change in MDM2 level at 10 uM incubated for 2 hrs by Western blot analysis.
For test [6] the target is unchanged. Description: PROTAC activity at VHL/MDM2 in human RS4-11 cells harbouring wildtype p53 assessed as fold change in p53 accumulation level at 0.1 uM incubated for 2 hrs by Western blot analysis.
For test [7] the target is unchanged. Description: PROTAC activity at VHL/MDM2 in human RS4-11 cells harbouring wildtype p53 assessed as fold change in p53 accumulation level at 0.3 uM incubated for 2 hrs by Western blot analysis.
Test [8] shares this target. Description: PROTAC activity at VHL/MDM2 in human RS4-11 cells harbouring wildtype p53 assessed as fold change in p53 accumulation level at 1 uM incubated for 2 hrs by Western blot analysis.
For test [9] the target is unchanged. Briefly: PROTAC activity at VHL/MDM2 in human RS4-11 cells harbouring wildtype p53 assessed as fold change in p53 accumulation level at 3 uM incubated for 2 hrs by Western blot analysis.
The target is the same in test [10]. Description: PROTAC activity at VHL/MDM2 in human RS4-11 cells harbouring wildtype p53 assessed as fold change in p53 accumulation level at 10 uM incubated for 2 hrs by Western blot analysis.
In test [11] the target is T2, E3 ubiquitin-protein ligase Mdm2 (Homo sapiens, UniProt Q00987). Description: Inhibition of MDM2 in human RS4-11 cells harbouring wildtype p53 assessed as fold increase in p21 level at 0.3 uM incubated for 2 hrs by Western blot analysis.
In test [12] the target is T1, von Hippel-Lindau disease tumor suppressor/E3 ubiquitin-protein ligase Mdm2 (Homo sapiens). Description: PROTAC activity at VHL/MDM2 in human RS4-11 cells harbouring wildtype p53 assessed as fold change in p21 level at 0.1 uM incubated for 2 hrs by Western blot analysis.
Test [13] has the same target. Description: PROTAC activity at VHL/MDM2 in human RS4-11 cells harbouring wildtype p53 assessed as fold change in p21 level at 0.3 uM incubated for 2 hrs by Western blot analysis.
The target is the same in test [14]. Briefly: PROTAC activity at VHL/MDM2 in human RS4-11 cells harbouring wildtype p53 assessed as fold change in p21 level at 1 uM incubated for 2 hrs by Western blot analysis.
Test [15] has the same target. Description: PROTAC activity at VHL/MDM2 in human RS4-11 cells harbouring wildtype p53 assessed as fold change in p21 level at 3 uM incubated for 2 hrs by Western blot analysis.
For test [16] the target is unchanged. Description: PROTAC activity at VHL/MDM2 in human RS4-11 cells harbouring wildtype p53 assessed as fold change in p21 level at 10 uM incubated for 2 hrs by Western blot analysis.
For test [17], the target named is T2, E3 ubiquitin-protein ligase Mdm2. Description: Inhibition of MDM2 in human RS4-11 cells harbouring wildtype p53 assessed as fold increase in cleaved PARP level at 0.1 uM incubated for 2 hrs by Western blot analysis.
Test [18] has the same target. Briefly: Inhibition of MDM2 in human RS4-11 cells harbouring wildtype p53 assessed as fold increase in cleaved PARP level at 0.3 uM incubated for 2 hrs by Western blot analysis.
Test [19] deals with T1, von Hippel-Lindau disease tumor suppressor/E3 ubiquitin-protein ligase Mdm2 (Homo sapiens). Briefly: PROTAC activity at VHL/MDM2 in human RS4-11 cells harbouring wildtype p53 assessed as fold change in cleaved PARP level at 0.1 uM incubated for 2 hrs by Western blot analysis.
Test [20] shares this target. Description: PROTAC activity at VHL/MDM2 in human RS4-11 cells harbouring wildtype p53 assessed as fold change in cleaved PARP level at 0.3 uM incubated for 2 hrs by Western blot analysis.
Test [21] has the same target. Description: PROTAC activity at VHL/MDM2 in human RS4-11 cells harbouring wildtype p53 assessed as fold change in cleaved PARP level at 1 uM incubated for 2 hrs by Western blot analysis.
Test [22] has the same target. Description: PROTAC activity at VHL/MDM2 in human RS4-11 cells harbouring wildtype p53 assessed as fold change in cleaved PARP level at 3 uM incubated for 2 hrs by Western blot analysis.
Test [23] shares this target. Description: PROTAC activity at VHL/MDM2 in human RS4-11 cells harbouring wildtype p53 assessed as fold change in cleaved PARP level at 10 uM incubated for 2 hrs by Western blot analysis.

Take `Cc1ncsc1-c1ccc([C@H](C)NC(=O)[C@@H]2C[C@@H](O)CN2C(=O)[C@@H](NC(=O)CCCOCCOCCOCCNC(=O)c2ccc(NC(=O)[C@@H]3NC4(CCCCC4)[C@@]4(C(=O)Nc5cc(Cl)ccc54)[C@H]3c3cccc(Cl)c3F)cc2)C(C)(C)C)cc1`: the fold change (FC) came out at 1.5 in test [1]; 1.3 in [2]; 1.6 in test [3]; 1.7 in test [4]; 2.2 in [5]; 3.1 in [6]. The fold change (FC) in [7] came to 3.9; in [8], 6.1; in [9] it was 8.3; in [10], 9.9; in test [11], 3.8; in [12] it was 1.8. The fold change (FC) in test [13] was found to be 1.8; in test [14], 2.2; in [15] it was 3.2; in test [16], 4.5; in [17] it was 7.3; in test [18] it was 47.8. The fold change (FC) in test [19] worked out at 2.9; in [20] it was 6.5; in test [21] it was 40.1; in [22] it was 60.5; in [23], 92.3.

The values above are taken from ChEMBL document CHEMBL5260839 (J Med Chem, 2019).
